Consider 1 molecule from ChEMBL document CHEMBL1128741, “Synthesis and biological evaluation of 5-fluoro-2'-deoxyuridine phosphoramidate analogs” (J Med Chem, 1995).

The data set relates to B16. The data set can be described thus: In vitro cytotoxicity (LC99) was measured against B16 Melanoma cells. The format is cell-based. Particulars: mouse. Summed up: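 B16 melanoma cells in exponential growth, (2–3) × 10⁶ in 10 mL serum-free MEM, exposed to drug for 2 h, then washed and resuspended in MEM + 10% FBS. Plated at 50–50 000 cells/plate, grown 8 d at 37 °C. Colonies stained with crystal violet and counted. LC99 (2-log drop in colony formation) taken from log-linear part of log surviving fraction vs concentration.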

`O=P1(N(CCCl)CCCl)NCC(O)CO1` (stereo unspecified) returned an LC99 of 12 µM.
